# Earlier results, collected in patent US20040235879A1, “Method for treatment of chemotherapy-induced diarrhea” (priority 2003, published 2004).
# Sequences of proteins named here, by UniProt entry; tags and fusion partners are left off.
# UniProt P33527, whole entry, species assumed: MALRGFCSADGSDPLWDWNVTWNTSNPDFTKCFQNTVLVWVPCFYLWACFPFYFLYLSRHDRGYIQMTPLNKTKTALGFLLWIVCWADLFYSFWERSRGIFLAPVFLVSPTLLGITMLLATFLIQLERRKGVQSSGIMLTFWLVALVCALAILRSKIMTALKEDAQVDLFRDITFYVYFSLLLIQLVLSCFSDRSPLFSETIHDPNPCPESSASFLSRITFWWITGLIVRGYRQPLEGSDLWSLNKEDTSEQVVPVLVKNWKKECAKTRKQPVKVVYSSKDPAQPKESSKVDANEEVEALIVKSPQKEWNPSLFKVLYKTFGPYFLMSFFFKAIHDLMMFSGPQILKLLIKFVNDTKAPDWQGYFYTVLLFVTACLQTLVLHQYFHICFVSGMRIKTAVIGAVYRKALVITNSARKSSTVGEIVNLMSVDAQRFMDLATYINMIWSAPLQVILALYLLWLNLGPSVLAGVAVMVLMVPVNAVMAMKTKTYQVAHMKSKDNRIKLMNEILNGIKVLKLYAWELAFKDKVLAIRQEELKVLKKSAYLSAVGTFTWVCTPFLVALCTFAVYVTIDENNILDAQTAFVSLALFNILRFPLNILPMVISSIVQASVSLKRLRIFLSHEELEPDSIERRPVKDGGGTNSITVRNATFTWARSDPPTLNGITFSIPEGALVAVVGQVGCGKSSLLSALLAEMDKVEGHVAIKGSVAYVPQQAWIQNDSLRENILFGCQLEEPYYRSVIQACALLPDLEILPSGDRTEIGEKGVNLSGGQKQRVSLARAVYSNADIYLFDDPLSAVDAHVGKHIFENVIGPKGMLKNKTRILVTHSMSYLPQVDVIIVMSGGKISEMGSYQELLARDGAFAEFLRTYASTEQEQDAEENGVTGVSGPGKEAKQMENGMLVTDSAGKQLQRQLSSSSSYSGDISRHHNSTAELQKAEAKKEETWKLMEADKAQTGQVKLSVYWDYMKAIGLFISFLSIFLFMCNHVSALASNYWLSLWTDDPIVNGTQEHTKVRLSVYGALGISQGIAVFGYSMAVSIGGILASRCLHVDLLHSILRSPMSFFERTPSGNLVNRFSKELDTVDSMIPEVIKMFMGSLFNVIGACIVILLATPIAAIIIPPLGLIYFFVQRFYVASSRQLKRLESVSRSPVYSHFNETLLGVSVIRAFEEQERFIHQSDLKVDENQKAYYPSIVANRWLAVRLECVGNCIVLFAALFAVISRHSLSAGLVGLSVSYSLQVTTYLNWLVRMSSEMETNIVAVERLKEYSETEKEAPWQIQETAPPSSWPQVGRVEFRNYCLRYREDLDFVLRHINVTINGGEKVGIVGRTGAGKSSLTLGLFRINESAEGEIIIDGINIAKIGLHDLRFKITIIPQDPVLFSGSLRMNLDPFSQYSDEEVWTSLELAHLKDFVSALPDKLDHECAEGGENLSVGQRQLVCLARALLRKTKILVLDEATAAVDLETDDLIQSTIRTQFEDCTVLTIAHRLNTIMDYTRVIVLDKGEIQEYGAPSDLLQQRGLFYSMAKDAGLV
# Target: MRP1 (ABCC1) (Homo sapiens, UniProt P33527)
# Details: cited from earlier work
smiles,measurement,value
"CCc1c2c(nc3ccc(OC(=O)N4CCC(N5CCCCC5)CC4)cc13)-c1cc3c(c(=O)n1C2)COC(=O)[C@]3(O)CC [irinotecan, [1,4′-Bipiperidine]-1′-carboxylic acid (4S)-4,11-diethyl-3,4,12,14-tetrahydro-4-hydroxy-3,14-dioxo-1H-pyrano[3′,4′:6,7]indolizino[1,2-b]quinolin-9-yl ester]",substrate of MRP1 (ABCC1),substrate
